From paper PMC5942844, “Identification and characterization of the Fasciola hepatica sodium- and chloride-dependent taurine transporter” (PLoS Neglected Tropical Diseases, 2018)

Biological target: T1, F. hepatica taurine transporter (FhTauT) (Fasciola hepatica, UniProt A0A2R4LGM2)
T1 sequence (A0A2R4LGM2 1-647): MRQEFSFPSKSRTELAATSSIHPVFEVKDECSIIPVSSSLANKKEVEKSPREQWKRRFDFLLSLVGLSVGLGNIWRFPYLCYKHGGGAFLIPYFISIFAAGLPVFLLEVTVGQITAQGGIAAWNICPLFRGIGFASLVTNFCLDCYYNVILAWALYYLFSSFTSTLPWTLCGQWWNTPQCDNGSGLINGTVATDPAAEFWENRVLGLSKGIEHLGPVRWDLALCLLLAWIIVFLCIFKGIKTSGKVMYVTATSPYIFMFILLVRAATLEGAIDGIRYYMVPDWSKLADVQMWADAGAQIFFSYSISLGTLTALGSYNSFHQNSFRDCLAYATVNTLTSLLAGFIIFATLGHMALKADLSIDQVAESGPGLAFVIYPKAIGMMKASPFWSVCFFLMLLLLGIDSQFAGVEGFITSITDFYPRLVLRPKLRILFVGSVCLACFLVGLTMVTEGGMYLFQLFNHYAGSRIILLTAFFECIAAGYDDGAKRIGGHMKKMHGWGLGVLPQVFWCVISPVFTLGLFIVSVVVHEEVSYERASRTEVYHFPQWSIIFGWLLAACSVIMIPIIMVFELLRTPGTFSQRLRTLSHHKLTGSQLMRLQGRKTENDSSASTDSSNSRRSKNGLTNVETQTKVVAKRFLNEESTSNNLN
Conditions: inhibitors of GABA uptake or GABA degradation
Experimental: Human embryonic kidney-293 (HEK293 (ATCC CRL-1573, LGC standards Wesel, Germany)) cells, were grown in Dulbecco`s modified Eagle medium (DMEM) supplemented with 10% fetal bovine serum (FCS Nuaille, France), 100 units/ml penicillin and 100 μg/ml streptomycin at 37°C and with 5% CO2 in a humidified incubator. Cells were transfected with plasmids encoding fluorescently tagged or untagged versions of F. hepatica (FhTauT) and H. sapiens (HsTauT) taurine transporter using Jet Prime transfection reagent (Polyplus-transfection, France). To generate monoclonal cell lines stably expressing the transporters, transfected cells were subjected to and selected with the concentration of 0.2 mg/ml geneticin (G418) for 10 days. Surviving cells forming colonies were separated and analyzed for membrane localization of transporters and transport of taurine. After the selection process cells were kept at 50 μg/ml G418 to keep the selection pressure.
For saturation uptake experiments, cells were plated the day before the experiment at a density of about 50,000 cells/well onto poly (D-lysine)-coated 48-well culture plates (CytoOne, USA). […] Non-specific uptake was determined by incubating cells in the presence of the blocker β-alanine (100 mM) before and during the experiment and subtracted from uptake values. […]

Structure (SMILES): O=C(O)C1CCCNC1 (stereo not shown) [nipecotic acid]
- inhibition of the transporter (taurine uptake): failed to inhibit
